# AlphaSeq binding of Ab-91 heavy chain variants to a spike HR2 peptide

The measurements come from Engelhart et al. 2022 (doi:10.1038/s41597-022-01779-4) through the FLAb antibody collection.

All variants were tested on one target, the spike HR2 peptide PDVDLGDISGINAS (SARS-CoV-2).

Parent: Ab-91, a human scFv built as VL, a (GGGGS)3 linker, VH. Only the CDRs of the heavy chain vary.
VL: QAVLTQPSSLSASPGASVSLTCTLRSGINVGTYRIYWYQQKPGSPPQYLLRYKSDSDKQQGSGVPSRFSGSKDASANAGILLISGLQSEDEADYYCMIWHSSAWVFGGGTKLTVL
VH: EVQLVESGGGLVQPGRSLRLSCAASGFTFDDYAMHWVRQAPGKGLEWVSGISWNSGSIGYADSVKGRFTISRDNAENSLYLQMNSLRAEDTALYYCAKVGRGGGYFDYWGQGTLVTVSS

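The starting antibody came from a phage panning campaign against this peptide. Variants in AAYL51 differ from the parent at up to three CDR positions; double and triple changes were sampled at random. In AlphaSeq, yeast of one mating type display the scFv and yeast of the other type display the target. Mating (16 h, 30 °C) was followed by selection of diploids and sequencing of their barcodes. Read counts were normalised to the haploid input and turned into Kd by a linear fit to BCL2-family pairs of known affinity, for each replicate. Each pool was mated in three replicate cultures.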

Each variant is given by its three heavy chain CDRs, as the data file delimits them; those of the parent are GFTFDDYAMH, GISWNSGSIGYADSVK, VGRGGGYFDY.
Scale: log10 of Kd in nM, estimated from mating counts; low values are strong binders.
An entry "nd" has no value in the source: the pair was not observed among the diploids in that replicate. This suggests poor binding but is not conclusive.
Nonspecific signal, from three strains lacking the peptide, appeared in 21% of pairings of library AAYL51, centred on 4.54 (5% of these signals below 3.26); values are not corrected for it. Also given: how often the same scFv was detected with the empty control strains, with their mean in brackets.

CDR-H1 | CDR-H2 | CDR-H3 | replicates, log10 nM | signal with controls
GFLFDDSAMH | GILWNSGSIGYADSVK | VGRGGGYFDY | 5.78 nd nd | 2 of 9 (3.80)
GFTFDDYAMH | GMGNNSGSIGYADSVK | VGRGGGYFDY | nd nd nd | 0 of 9
GWTIDDYAMH | GISWNSGSIGYADLVK | VGRGGGYFDY | 3.67 3.73 3.75 | 6 of 9 (4.79)
EFPFDDYAAH | GISWNSGSIGYADSVK | VGRGGGYFDY | 4.74 nd 5.63 | 8 of 9 (4.62)
GFTKDDYAMH | GISWNSESIGYADFVK | VGRGGGYFDY | 4.14 nd nd | 3 of 9 (3.92)
GFKFDDYAMH | GISMNSFSIGYADSVK | VGRGGGYFDY | 1.02 1.01 0.67 | 2 of 9 (4.90)
GFTFDDDAMH | GISWNSGSQGYADSVK | VGRGGGMFDY | 3.80 nd nd | 1 of 9 (3.99)
GFTFDKYAMH | GISWNSGPIGYADSVK | VGRGGGYFDY | 3.57 nd nd | 3 of 9 (5.02)
GFTFDDYAMH | GIRWASGSIGYADSVK | VGRGGWYFDY | nd nd 4.19 | 1 of 9 (3.85)
GFTFDDDAMH | GISWNSGSIGYADSVK | CHRGGGYFDY | 4.99 4.13 nd | 2 of 9 (5.41)
GFTFDDYAMH | GISWNSGSIGYAISVK | VGRGKGCFDY | nd nd nd | 1 of 9 (2.53)
GFTFDDYAMH | GISWNSGSPGYADSGK | VGRWGGYFDY | nd nd nd | 0 of 9
GFNFDDYAMH | GISWNSGSIGYVDSGK | VGRGGGYFDY | nd nd nd | 0 of 9
GFTFDDYAMH | GISWNSGSIGYADSTK | VYRGGGYQDY | nd nd nd | 0 of 9
GFTFKDYAMH | GISWNSGSIGSADSVK | VGRGGGYDDY | nd 3.53 nd | 1 of 9 (3.59)
GFTFDDYAMH | GISWNSGSIGDAISVK | VGRGGGYFDY | nd nd nd | 0 of 9
GFTFDEYFMH | GISWNSGSIGYADSVK | VGRGGGYFDY | nd nd nd | 3 of 9 (4.27)
GFTFDDYAMH | GIMWNSGSIGYADSVK | VNRGGGYFDY | 3.37 3.54 4.30 | 6 of 9 (5.20)
GFTFDDYAML | VISWNSGSIGYADSVK | VGRGGGYFDY | nd 4.91 nd | 6 of 9 (4.93)
GFTFDDYAMH | GISWNSGSIGYLDSIK | VGRGGGYFDY | 2.69 2.36 3.35 | 1 of 9 (3.20)
GFNFPDYAMH | GISWNSGYIGYADSVK | VGRGGGYFDY | 1.58 1.82 1.20 | 1 of 9 (3.51)
CFTFDDYAMH | GISWNSGSIGYAQSVK | VGRGGGYFDY | 4.70 nd nd | 0 of 9
KFTFDDYACH | GILWNSGSIGYADSVK | VGRGGGYFDY | 6.46 nd 5.54 | 4 of 9 (5.59)
GFTNDDYAMH | GRSWNSGSIGYADSVK | VGRGLGYFDY | nd nd nd | 0 of 9
GFIFDDYAMH | GILWNLGSIGYADSVK | VGRGGGYFDY | nd nd nd | 0 of 9
GFTFTDYAMH | GISWNSGSIGYADSVK | VGRKGGWFDY | nd 4.45 nd | 3 of 9 (4.58)
GFTFDDYAMH | MISWNSGSIGYADSVK | VGRGGGYTDY | nd nd nd | 1 of 9 (3.38)
GFTFDDVAMH | GISWNSGSIGYADSVK | VGRGGFYYDY | 5.91 nd 4.85 | 4 of 9 (4.37)
GFTADDYAMH | GFSWNSGSIGYADSVK | VMRGGGYFDY | nd nd 4.54 | 1 of 9 (3.90)
GFTFDDYAMH | GISWLSGSIGYGDSVK | VGRGGGYFDY | nd nd nd | 2 of 9 (3.97)
GITFDDYAMH | GFSWNSGSIGYADSVD | VGRGGGYFDY | nd nd nd | 1 of 9 (4.50)
GFTFDDYAMH | GISWNPGSIGYADSVK | VGRGGAYFDY | 3.64 6.75 4.90 | 5 of 9 (4.63)
GFTFCDWAMH | GISWNSGSIGYADEVK | VGRGGGYFDY | 5.57 3.79 4.42 | 5 of 9 (4.04)
GFTFDDYTMH | GISWRSGSHGYADSVK | VGRGGGYFDY | 3.33 nd nd | 0 of 9
GFTFVDYAMH | GISWNSGSIGYADSVK | VGRGGGAFMY | 3.27 3.18 2.96 | 4 of 9 (4.44)
GFTFDDYAMH | GWSWNSGCIGYADSVR | VGRGGGYFDY | nd nd nd | 1 of 9 (3.35)
GFTFDGYAMH | GISWNSGSIGYADSVK | VHRAGGYFDY | nd nd nd | 1 of 9 (4.31)
GFTFDDYAMH | LGSWNSGSIGYADSVK | VFRGGGYFDY | nd nd nd | 1 of 9 (5.25)